The values that follow are results of earlier work, collected in article PMC8645912 (ESMO Open, 2021).

The subject of the data set is metastatic renal cell carcinoma. The following applies: mRCC; cited from earlier work.

In the case of `Cc1ccc(Nc2nccc(N(C)c3ccc4c(C)n(C)nc4c3)n2)cc1S(N)(=O)=O` [Pazopanib], the “Css,trough associated with higher rate of hypertension” value was “• ≥15 μg/ml associated with higher rate of hypertension”.
On to `CCN(CC)CCNC(=O)c1c(C)[nH]c(/C=C2\C(=O)Nc3ccc(F)cc32)c1C` [Sunitinib], for which the “Css,trough associated with higher toxicity rate” value is on record as “• ≥100 ng/ml higher toxicity rate”.
Consider `CNC(=O)c1ccccc1Sc1ccc2c(/C=C/c3ccccn3)n[nH]c2c1` [Axitinib], for which the “Css,trough associated with ≥G2 hypothyroidism” value is over 6.6 ng/mL.
